The record followed here is ChEMBL document CHEMBL4321821, “Opioids as Substrates and Inhibitors of the Genetically Highly Variable Organic Cation Transporter OCT1” (J Med Chem, 2019).

By UniProt entry, the sequences of proteins in these tests, tags left out.
UniProt O15245, whole entry: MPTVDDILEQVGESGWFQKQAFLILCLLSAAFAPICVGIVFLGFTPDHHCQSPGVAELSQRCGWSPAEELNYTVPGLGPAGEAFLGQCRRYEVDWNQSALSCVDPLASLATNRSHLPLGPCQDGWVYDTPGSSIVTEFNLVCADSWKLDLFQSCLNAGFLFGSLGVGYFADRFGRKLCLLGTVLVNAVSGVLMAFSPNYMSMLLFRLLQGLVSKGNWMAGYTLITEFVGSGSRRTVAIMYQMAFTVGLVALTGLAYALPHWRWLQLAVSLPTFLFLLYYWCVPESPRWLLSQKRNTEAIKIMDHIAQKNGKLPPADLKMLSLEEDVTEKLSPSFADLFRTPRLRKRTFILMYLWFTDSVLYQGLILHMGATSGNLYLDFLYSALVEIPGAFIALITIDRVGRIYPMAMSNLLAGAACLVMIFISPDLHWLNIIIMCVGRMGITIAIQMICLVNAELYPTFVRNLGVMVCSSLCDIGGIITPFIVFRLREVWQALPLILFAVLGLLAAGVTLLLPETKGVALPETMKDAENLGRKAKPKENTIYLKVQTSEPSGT

Only a part of the results on these compounds is given; other tests are left out.

The target of data set [1] is T1, Solute carrier family 22 member 1 (Homo sapiens, UniProt O15245). Put plainly: Substrate activity at human OCT1 expressed in HEK293 cells assessed as increase in compound uptake at 0.05 uM incubated for 2 mins by LC-MS/MS analysis relative to control empty vector transfected cells. It is filed as cell-based. The following applies: hek293, 2 min.
Data set [2] can be described thus: Unbound Cmax in human at 0.615 mg, po dosed as single dose. The following applies: in vivo.
Data set [3] concerns the target T1, Solute carrier family 22 member 1. Put plainly: Substrate activity at human OCT1 expressed in HEK293 cells assessed as increase in compound uptake at 0.1 uM incubated for 2 mins by LC-MS/MS analysis relative to control empty vector transfected cells. It is filed as cell-based. The following applies: hek293, 2 min.
A short description of data set [4]: Ratio of unbound Cmax in human at 0.615 mg, po dosed as single dose to inhibition of human OCT1 expressed in HEK293 cells assessed as reduction in ASP+ substrate uptake by microplate reader based analysis. The following applies: in vivo.
A short description of data set [5]: Ratio of unbound maximal portal vein concentration in human at 0.615 mg, po dosed as repeated dose to inhibition of human OCT1 expressed in HEK293 cells assessed as reduction in ASP+ substrate uptake by microplate reader based analysis. The conditions noted are these: in vivo.
Data set [6] is described as follows: Unbound maximal portal vein concentration of in human at 0.615 mg, po dosed as repeated dose. The conditions noted are these: in vivo.
The nature of data set [7]: Ratio of unbound Cmax in human at 0.615 mg, po dosed as repeated dose to inhibition of human OCT1 expressed in HEK293 cells assessed as reduction in ASP+ substrate uptake by microplate reader based analysis. The following applies: in vivo.
The nature of data set [8]: Unbound Cmax in human at 0.615 mg, po dosed as repeated dose. The following applies: in vivo.
In data set [9] the target is T1, Solute carrier family 22 member 1. Put plainly: Substrate activity at human OCT1 expressed in HEK293 cells assessed as increase in compound uptake at 0.5 uM incubated for 2 mins by LC-MS/MS analysis relative to control empty vector transfected cells. It is filed as cell-based. The following applies: hek293, 2 min.
A short description of data set [10]: Unbound maximal portal vein concentration of in human at 0.615 mg, po dosed as single dose. The conditions noted are these: in vivo.
Data set [11] can be described thus: Ratio of unbound maximal portal vein concentration in human at 0.615 mg, po dosed as single dose to inhibition of human OCT1 expressed in HEK293 cells assessed as reduction in ASP+ substrate uptake by microplate reader based analysis. The following applies: in vivo.
Data set [12] in a line: Cmax in human at 0.5 mg. TM.
Data set [13] is described as follows: Unbound maximal portal vein concentration of in human at 0.5 mg. TM.
Data set [14] is described as follows: Unbound Cmax in human at 0.5 mg. TM.
Data set [15] can be described thus: Cmax in human at 5 mg, TD. The conditions noted are these: in vivo, topical_or_ocular.
Data set [16] is described as follows: Unbound maximal portal vein concentration of in human at 5 mg, TD. The conditions noted are these: in vivo.
A short description of data set [17]: Unbound Cmax in human at 5 mg, TD. The following applies: in vivo, topical_or_ocular.

`CCC(=O)N(c1ccccc1)C1(COC)CCN(CCc2cccs2)CC1`: the values for the fold change (FC) in data set [1], in data set [3] and in data set [9] were 1.1, 1 and 1.1, respectively. The fCmax in data set [2] came out at 1e-05 µM; in data set [6] it was 0.007 µM; in [8] it was 5e-05 µM; in [10], 0.0002 µM. Moreover, the Ratio is 4e-07 in data set [4], 0.0004 in [5], 3e-06 in data set [7] and 1e-05 in data set [11].

Turning to `CCC(=O)N(c1ccccc1)C1CCN(CCc2ccccc2)CC1`, the maximum concentration (Cmax) came out at 2 nM in data set [12] and 4 nM in [15]. Moreover, the fCmax in [13] was found to be 0.01 µM; in [14] it was 0.0004 µM; in data set [16], 0.14 µM; in [17], 0.0007 µM.

What is called Cmax is the highest concentration seen after dosing.
